# scFv variants of Ab-14 (light chain) against a SARS-CoV-2 spike peptide

The measurements come from Li et al. 2023 (doi:10.1038/s41467-023-39022-2) through the FLAb antibody collection.

Target peptide (SARS-CoV-2 spike, HR2 region): PDVDLGDISGINAS

The variants keep the heavy chain, the linker and the frameworks of Ab-14 (scFv order VH, a 15-residue (Gly4Ser)3 linker, VL).
VH: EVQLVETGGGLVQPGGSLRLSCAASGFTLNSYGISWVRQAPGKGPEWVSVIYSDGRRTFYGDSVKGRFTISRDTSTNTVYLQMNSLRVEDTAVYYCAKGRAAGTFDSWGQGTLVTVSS
VL: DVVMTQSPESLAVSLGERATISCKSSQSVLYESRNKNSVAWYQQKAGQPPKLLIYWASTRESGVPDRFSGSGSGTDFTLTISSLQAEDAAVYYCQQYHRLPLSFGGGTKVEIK

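The starting antibody came from a phage panning campaign against this peptide. These sequences belong to a second round, designed from the earlier measurements on random variants of the parent. Several design methods are mixed in this list. In AlphaSeq, yeast of one mating type display the scFv and yeast of the other type display the target. After mating in shaken culture at 30 °C for 16 h, diploids were selected and their barcode pairs sequenced. Scores were corrected for input abundance and mapped to Kd with protein pairs of known affinity run in the same pool. There are six technical replicates.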

Variants are written as CDR1, CDR2 and CDR3 of the light chain (limits as in the source). Parent: KSSQSVLYESRNKNSVA, WASTRES, QQYHRLPLS. Values are log10 of the apparent Kd in nM; lower means stronger binding. The mean shown is taken over the replicates in which the pair was detected. "nd" means that the variant was in the library but no mating with the target was seen in any replicate; the authors take this as a sign of poor binding, and no number exists. A sequence measured in both rounds can read differently, since the two assays cover different ranges. The parent sequence was in this pool as ten entries: three were never detected, three once, and four in most replicates, with averages from 0.34 to 2.37. Background: pairings of all light chain designs with three empty control strains gave a value in 4% of cases (median 2.64, 5th percentile 1.59). Values in that range, when seen in few replicates, are hard to tell from nonspecific mating. Also given: how often the same scFv was detected with the empty control strains. The authors' rule: three or more of the six replicates give a measured affinity, fewer mean a poor binder.

| CDR-L1 | CDR-L2 | CDR-L3 | mean log10 Kd (nM) | seen in | empty controls |
|---|---|---|---|---|---|
| KISQSVEYESRDKNSVA | NANTRLS | QQYHRLPLS | 0.20 | 6/6 | 3/18 |
| HMSMLTLMGQRHRNSVA | QMTTRVN | QQYDRLPLA | nd | 0/6 | 0/18 |
| KISQSWLYESRNKNSVA | NASQRLS | QQYHRLPLS | 0.13 | 6/6 | 1/18 |
| TISQMTALFSQTINNVA | EVSTREN | QQYDRLPLV | 0.88 | 6/6 | 0/18 |
| HISQSVGMTSFNKNSVA | ENNTREN | QQYDRLPLS | 1.96 | 1/6 | 4/18 |
| KLRQQTLYESRNKNSVA | HASTREE | QQYHRLPLS | 0.91 | 6/6 | 0/18 |
| KIYAMTMLESHDKNSIA | DLSTRGN | QQYHRLPLS | 2.36 | 6/6 | 1/18 |
| DSSNSVLYESRNKNSVA | WASTRES | QQYHRLPVS | 2.78 | 2/6 | 0/18 |
| KISQMSTIESIMHNSVA | QTSTRES | QQYDRLPLS | 2.13 | 5/6 | 0/18 |
| MISDLTTYGLRNVNSVA | DLSTRGN | QQYDRLPLS | 0.57 | 6/6 | 2/18 |
| KSWQSVLAESRNKNSVA | GASTRES | QQYHRLPLS | 0.84 | 6/6 | 0/18 |
| KMKQSMEGNPKNWNSVA | DVDSTKE | QQYARLPLF | 1.15 | 6/6 | 0/18 |
| KLMQSWPYESRNKNSVA | NASTRES | QQYHRLPLS | 0.20 | 6/6 | 1/18 |
| KSSQSVLYEERNKFSVA | WASTRES | QQPHRLPLS | 1.74 | 1/6 | 0/18 |
| KLSQSELYESRAKNSVA | NASQRES | QQYHRLPLS | 0.35 | 6/6 | 1/18 |
| KSSQSVMYESRNKNSVA | WASTRES | QQYHRLPLS | 2.33 | 6/6 | 0/18 |
| KLEWSELYESRNKNSVA | NASTRES | QQYHRLPLS | 0.58 | 6/6 | 1/18 |
| KISGLSNHQSSVSNNVA | ENVTRVN | QQYFRLPLA | 1.22 | 6/6 | 3/18 |
| KFAYGLDMNNAHCSAVA | HADIREI | QQYFKLPLM | 1.42 | 6/6 | 1/18 |
| KSLESVLYESNNKNSVA | QASTRED | QQYHRLPLS | 1.03 | 6/6 | 2/18 |
| KLSQGWLYESRNKNSVA | NASQRES | QQYHRLPLS | -0.16 | 6/6 | 0/18 |
| KFSQAYMYEQRNKNSVA | NASQRES | QQYHRLPLS | -0.23 | 6/6 | 1/18 |
| KLSMITGHMSMSRNNVA | EMATREN | QQYERLPLS | 0.61 | 6/6 | 2/18 |
| KSSQSVWYQSRNKNSVA | WASTRPS | QQYHRLPLS | 2.52 | 2/6 | 2/18 |
| HLSFPWQSGHDSMHAVA | NDSTLMT | QHYNRLPLS | 1.47 | 6/6 | 2/18 |
| KSSQSVLGEDRNKNSVA | DASTRES | QQYHRLPLS | 0.18 | 6/6 | 2/18 |
| KSGQGVTYESRNKNSVP | GASTRWS | QQYHRLPLS | 0.69 | 6/6 | 1/18 |

Continued, with the values leading:

| mean log10 Kd (nM) | seen in | empty controls | CDR-L1 | CDR-L2 | CDR-L3 |
|---|---|---|---|---|---|
| 0.61 | 6/6 | 2/18 | KMSQSHLYESRNKNSVA | DASTRES | QQYHRLPLS |
| 0.61 | 6/6 | 0/18 | KLDGSDNYESRNKNSVA | EGSTRES | QAYHRLPLS |
| 0.22 | 6/6 | 1/18 | KLSQTHGMEMVNRNSVA | ELVTRMN | QQYNRLPLS |
| 0.76 | 6/6 | 0/18 | KFSQKVLYEPRTKNSVA | NASTRES | QQYHRLPLS |
| 0.25 | 6/6 | 0/18 | KSSQSVLGESFNLNSVA | DATIRES | QQYHRLPLS |
| 0.11 | 6/6 | 2/18 | KLMQSVLYESRMKNSVA | NASQRES | QQYHRLPLS |
| -0.17 | 6/6 | 0/18 | KSSQSDLYESRNKNSVA | GASAREV | QQYHRLPLS |
| nd | 0/6 | 0/18 | HQSPSVLYESRNKNSVA | NGSTREV | QQYHRLRLS |
| nd | 0/6 | 0/18 | KISQMVRVGSTHKNSIA | EEAKRAD | QQYHRLPLA |
| 0.19 | 6/6 | 3/18 | KSKQSVLYESSNKNSVA | EASTRES | QQYHRLPLS |
| 1.07 | 6/6 | 0/18 | KIGMTLNMMMRKKNNVA | DLVTREN | QQYHRLPLS |
| -0.18 | 6/6 | 1/18 | KVDQSVLQQSRNSNSVA | EASQREE | QQYHRLPLS |
| -0.14 | 6/6 | 1/18 | KSSGSELYESRNKNSVA | EASTRES | QQYHRLPLS |
| 0.15 | 6/6 | 1/18 | KLCQSVLYESRNKNSVA | NASTRED | QQYHRLPLS |
| nd | 0/6 | 0/18 | KSSQAVLYESRNKNPVA | WASTRES | QQVHRLPLS |
| 0.67 | 6/6 | 0/18 | KLDMNELGQSQNSSSVA | GSANKCQ | QQYFRLPLS |
| 0.03 | 6/6 | 1/18 | KLSQSVLYESRVKNSVA | GASTRES | QQYHRLPLS |
| 0.07 | 6/6 | 1/18 | KFVQSWLYESRNKNNVA | HASQRCS | QQYHRLPLS |
| 1.35 | 5/6 | 0/18 | VLSDTIGNQYDEADNIA | DKTETSV | QQYARLPLS |
| 0.34 | 6/6 | 2/18 | KLMQLVLYESRNKNSVA | NASYREQ | QQYHRLPLS |
| nd | 0/6 | 0/18 | KSSQSVTYESNNKNSVA | WDSTRPS | QQYHRLHLK |
| 1.07 | 6/6 | 1/18 | KLLQTVMNETRNRNNVA | HMTTRED | QQYFRLPLS |
| nd | 0/6 | 1/18 | QIDDLDEDSQAEVSQVA | NAAEAIV | QQYQRLPLS |
| 0.90 | 6/6 | 1/18 | KLSQSYLYESRNKNSVA | NASTRES | QCYHRLPLS |
| -0.50 | 6/6 | 1/18 | KLSQSVLYESRNKNAVA | NASTRES | QQYHRLPLS |
| 0.05 | 6/6 | 1/18 | KIGATLNQLYEKANNVA | DLVEREN | QQYHRLPLS |
| nd | 0/6 | 0/18 | IVSQMMLWGMHLKNSIA | EAQTRVN | QQYDRLPLF |

A selection of 6 entries from above:

| CDR-L1 | CDR-L2 | CDR-L3 | mean log10 Kd (nM) | seen in | empty controls |
|---|---|---|---|---|---|
| KLMQSVLYESRMKNSVA | NASQRES | QQYHRLPLS | 0.11 | 6/6 | 2/18 |
| KVDQSVLQQSRNSNSVA | EASQREE | QQYHRLPLS | -0.18 | 6/6 | 1/18 |
| KLMQLVLYESRNKNSVA | NASYREQ | QQYHRLPLS | 0.34 | 6/6 | 2/18 |
| KFVQSWLYESRNKNNVA | HASQRCS | QQYHRLPLS | 0.07 | 6/6 | 1/18 |
| MISDLTTYGLRNVNSVA | DLSTRGN | QQYDRLPLS | 0.57 | 6/6 | 2/18 |
| KSGQGVTYESRNKNSVP | GASTRWS | QQYHRLPLS | 0.69 | 6/6 | 1/18 |